From patent publication US9434734B2, “Substituted pyrazoloquinazolinones and pyrroloquinazolinones as allosteric modulators of group II metabotropic glutamate receptors” (Domain Therapeutics, priority 2012, dated 2016)
Where two headings read alike, the source gives them in different places.

Amino acid sequences for entries named in this document (tags omitted). Residues count along the entry.
UniProt Q14416, 19-872: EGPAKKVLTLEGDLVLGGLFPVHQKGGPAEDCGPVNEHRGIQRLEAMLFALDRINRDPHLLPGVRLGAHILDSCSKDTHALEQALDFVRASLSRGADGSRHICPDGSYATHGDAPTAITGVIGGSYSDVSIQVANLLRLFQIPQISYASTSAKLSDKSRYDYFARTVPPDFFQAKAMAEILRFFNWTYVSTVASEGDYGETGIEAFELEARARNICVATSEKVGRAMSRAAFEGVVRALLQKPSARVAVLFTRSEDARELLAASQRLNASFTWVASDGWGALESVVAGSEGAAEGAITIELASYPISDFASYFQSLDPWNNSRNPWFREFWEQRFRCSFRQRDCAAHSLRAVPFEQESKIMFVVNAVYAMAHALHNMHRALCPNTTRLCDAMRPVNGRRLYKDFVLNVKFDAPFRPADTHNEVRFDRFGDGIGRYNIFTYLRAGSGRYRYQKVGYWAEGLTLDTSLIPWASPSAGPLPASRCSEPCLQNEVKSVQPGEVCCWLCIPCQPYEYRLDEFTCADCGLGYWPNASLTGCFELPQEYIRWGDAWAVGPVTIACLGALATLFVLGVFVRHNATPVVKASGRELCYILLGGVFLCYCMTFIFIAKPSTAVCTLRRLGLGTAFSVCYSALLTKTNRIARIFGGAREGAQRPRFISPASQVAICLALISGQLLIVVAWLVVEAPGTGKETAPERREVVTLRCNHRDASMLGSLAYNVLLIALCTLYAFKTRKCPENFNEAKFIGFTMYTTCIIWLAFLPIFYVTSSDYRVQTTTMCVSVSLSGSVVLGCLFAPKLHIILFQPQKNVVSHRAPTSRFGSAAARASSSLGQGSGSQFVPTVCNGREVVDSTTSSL
UniProt Q14832, 23-879: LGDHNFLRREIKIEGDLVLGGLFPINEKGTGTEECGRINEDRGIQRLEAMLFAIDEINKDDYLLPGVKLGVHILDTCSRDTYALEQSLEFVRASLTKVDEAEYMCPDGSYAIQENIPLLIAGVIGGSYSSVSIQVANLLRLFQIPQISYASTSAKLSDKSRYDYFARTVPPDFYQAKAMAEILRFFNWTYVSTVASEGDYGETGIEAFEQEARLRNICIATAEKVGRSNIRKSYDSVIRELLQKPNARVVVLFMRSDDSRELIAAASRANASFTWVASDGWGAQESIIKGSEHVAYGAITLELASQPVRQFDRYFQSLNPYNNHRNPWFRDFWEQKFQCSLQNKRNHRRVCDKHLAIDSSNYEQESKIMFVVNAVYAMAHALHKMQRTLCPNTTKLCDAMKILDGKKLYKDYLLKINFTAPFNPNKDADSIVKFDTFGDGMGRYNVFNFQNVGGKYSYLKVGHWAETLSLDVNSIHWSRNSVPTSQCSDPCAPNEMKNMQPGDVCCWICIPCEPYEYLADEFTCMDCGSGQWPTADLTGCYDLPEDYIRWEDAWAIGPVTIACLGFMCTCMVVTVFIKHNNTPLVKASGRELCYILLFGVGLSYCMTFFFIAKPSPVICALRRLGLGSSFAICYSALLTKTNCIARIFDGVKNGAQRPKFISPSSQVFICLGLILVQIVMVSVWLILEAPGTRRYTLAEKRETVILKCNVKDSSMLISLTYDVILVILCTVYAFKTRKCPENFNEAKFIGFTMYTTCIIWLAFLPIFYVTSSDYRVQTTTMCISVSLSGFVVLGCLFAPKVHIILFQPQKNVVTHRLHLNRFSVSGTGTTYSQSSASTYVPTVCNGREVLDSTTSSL

Assays:
[1] = target: T1, human mGluR2 (hmGluR2) transiently over-expressed in HEK-293 cells (Homo sapiens, UniProt Q14416); experiment: Human mGluR2 negative allosteric modulator evaluation using Ca++ functional assay (agonist and NAM activity); type: cell-based
T1 construct: expressed in transfected cells; host or cells: HEK-293 cells, transient co-transfection by electroporation
Procedure: Human mGluR2 Negative Allosteric Modulator Evaluation Using Ca^++ Functional Assay
Compounds of the present invention were tested successively for their agonist and negative allosteric modulator activities on human mGluR2 (hmGluR2) transiently over-expressed in HEK-293 cells. They exert agonist activity if they are able to activate mGluR2 by themselves, i.e., in absence of the endogenous agonist glutamate; and they exert negative allosteric modulator activity if they decrease the action of the endogenous agonist glutamate.
HEK-293 cells were maintained in Modified Eagle's Medium supplemented with 10% Foetal Calf Serum, 1% Penicillin/Streptomycin and 1% nonessential amino acids at 37° C./5% CO2.
Cells were plated after transfection onto polyornithine coated, clear bottom, black-walled, 96-well plates and cultured for 24 h.
Receptor activity was detected by changes in intracellular calcium measured using the fluorescent Ca^2+ sensitive dye, Fluo4AM (Molecular Probes).
The day of the assay, medium was aspirated and replaced during 3 hours by medium without serum supplemented with 1% Glutamax, 1% Penicillin/Streptomycin and 1% nonessential amino acids. Then, cells were washed with freshly prepared buffer B (HBSS 1× (PAA), Hepes 20 mM, MgSO4-7H2O 1 mM, Na2CO3 3.3 mM, CaCl2-2H2O 1.3 mM, 0.5% BSA, Probenecid 2.5 mM) and loaded at 37° C./5% CO2 for 1.5 hours with buffer B containing 1 μM Fluo4AM, 0.1 mg/mL Pluronic Acid, 7 μg/mL Glutamate Pyruvate Transaminase and 2 mM sodium pyruvate. Afterwards cells were washed twice with buffer B and 50 μL of this buffer were added to each well.
Agonist and negative allosteric modulator activities of compounds were consecutively evaluated on the same cells plate. […] Then, the cells were stimulated by an EC80 glutamate concentration and fluorescence was recorded for additional 60 s. EC80 glutamate concentration is the concentration giving 80% of the maximal glutamate response. Agonist and/or negative allosteric modulator activity(ies) were evaluated in comparison to basal signal or signal evoked by EC80 glutamate alone, respectively.
For potency determination, a dose-response test was performed using 8 concentrations of each compound of the invention. Dose-response curves were fitted using the sigmoidal dose-response (variable slope) analysis in GraphPad Prism program (Graph Pad Inc) and EC50 of agonist/IC50 of negative allosteric modulator activity was calculated. Dose-response experiments were all performed in duplicate, two times independently.

human mGluR3 (hmGluR3) = human mGluR3 (hmGluR3) (Homo sapiens, UniProt Q14832); experiment: mGluR3 negative allosteric modulator activity; type: cell-based
[2] = mGluR2 negative allosteric modulator activity IC50

IC50 ([1]; hmGluR2 in HEK-293 cells, EC80 glutamate, Fluo4AM calcium readout, read-out: mGluR2 negative allosteric modulator activity IC50) [nM] | Compound | IC50 [1, 2] [nM] | IC50 ([1]; IC50 for mGluR2) [nM] | IC50 (human mGluR3 (hmGluR3)) [nM]
< 1000 | Cl.Cn1c(=O)c2ccc(-c3ccc(N)nc3)cc2n2nc(-c3ccccc3)cc12 [Example 2, 8-(6-Amino-pyridin-3-yl)-4-methyl-2-phenyl-4H-pyrazolo[1,5-a]quinazolin-5-one] | – | – | –
– | Cn1c(=O)c2ccc(-c3cccc(-c4nn[nH]n4)c3)cc2n2nc(C3CCOCC3)cc12 [Example 96, 4-Methyl-2-(tetrahydro-pyran-4-yl)-8-[3-(2H-tetrazol-5-yl)-phenyl]-4H-pyrazolo[1,5-a]quinazolin-5-one] | < 1000 | – | –
– | Cn1c(=O)c2ccc(-c3cccc(-c4nn[nH]n4)c3)cc2n2nc(-c3ccccc3)cc12 [Example 36, 4-Methyl-2-phenyl-8-[3-(2H-tetrazol-5-yl)-phenyl]-4H-pyrazolo[1,5-a]quinazolin-5-one] | < 1000 | – | –
– | Cn1c(=O)c2ccc(-c3cccc(S(N)(=O)=O)c3)cc2n2nc(-c3ccccc3)cc12 [Example 1, 3-(4-Methyl-5-oxo-2-phenyl-4,5-dihydro-pyrazolo[1,5-a]quinazolin-8-yl)-benzenesulfonamide] | < 1000 | < 30 | < 1000
